Earlier results, collected in publication PMC9334274, “A unique class of Zn^2+-binding serine-based PBPs underlies cephalosporin resistance and sporogenesis in Clostridioides difficile” (Nature Communications, 2022).

System: Clostridioides difficile infection (CDI)
Details: cited from earlier work

CCC[C@@H]1C[C@@H](C(=O)N[C@@H]([C@H]2O[C@H](SC)[C@H](O)[C@@H](O)[C@H]2O)[C@H](C)Cl)N(C)C1 [clindamycin]
odds ratio for CDI: 2.86
